{"source": "paper PMC4307180", "about": "“Overcoming myelosuppression due to synthetic lethal toxicity for FLT3-targeted acute myeloid leukemia therapy” (eLife, 2014)", "origin": "cited, not measured here", "system": "HMC1.1 cells (KIT V560G)", "settings": "proliferation, Figure 2A and reference values; ref de Jong and Zon, 2005; Guo et al., 2007; Kampa-Shittenhelm et al., 2013; cited from earlier work"}
{"smiles": "CC(C)(C)c1cc(NC(=O)Nc2ccc(-c3cn4c(n3)sc3cc(OCCN5CCOCC5)ccc34)cc2)no1.Cl.Cl", "note": "[AC220, N-(5-tert-Butyl-isoxazol-3-yl)-N'-{4-[7-(2-morpholin-4-yl-ethoxy)imidazo[2,1-b][1,3]benzothiazol-2-yl]phenyl}urea Dihydrochloride]", "values": [{"measurement": "inhibition of FLT3- versus KIT-driven cell lines", "value": "equipotent inhibition of FLT3 and KIT-driven cell lines"}]}
